# Screening results as filed in PubChem.
# GIV-Gai inh: blocks GIV peptide binding to rat Galpha-i3. P08753. Galpha-i3/FITC-GIV peptide fluorescence polarization, 90 min; hits give low values; scaled: aluminum fluoride 0%, vehicle 100%. percent of control (FP), % (concentration not given with the values). actives 0.42% (n = 210,000). AID 1224905;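 active = replicate mean at 85% of control or lower, very high polarization wells dropped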;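 also: wells of about 15 µL received 100 nL stock; the first replicate is given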
# HCMV UL50-53 inh: cytomegalovirus nuclear egress complex inhibition; actives 0.15% (n = 190,000); inhibition, % (concentration not given with the values); HTRF UL50-UL53 interaction, normalized percent inhibition; in the data active means inhibition above about 27%, passing the limit was not always enough
# A number is an active result; n = inactive; x = not tested or not shown. Shown are actives, neighbours in structure and some others; about 0.43% of the full set was active somewhere.
SMILES,GIV-Gai inh,HCMV UL50-53 inh
Cc1ccc(C)n1CCN1CCN(C(=O)c2cccc(C(F)(F)F)c2)CC1,n,n
CCN1C(=O)/C(=C/c2c(N3CCCCC3)nc3ccccn3c2=O)SC1=S,-75.4,n
CCCCN1C(=O)/C(=C/c2c(N3CCN(CCO)CC3)nc3ccccn3c2=O)SC1=S,n,x
CN1CCN(c2nc3ccccn3c(=O)c2/C=C2\SC(=S)N(Cc3ccco3)C2=O)CC1,n,n
COCCCN1C(=O)/C(=C/c2c(N3CCN(C)CC3)nc3c(C)cccn3c2=O)SC1=S,61.7,n
CCCN1C(=O)/C(=C/c2c(N3CCCC3)nc3ccccn3c2=O)SC1=S,-60.5,n
CC1CCN(c2nc3ccccn3c(=O)c2/C=C2/SC(=S)N(C3CCCCC3)C2=O)CC1,n,x
C=CCN1C(=O)/C(=C/c2c(N3CCCCC3)nc3ccccn3c2=O)SC1=S,-36.2,x
Cc1cccn2c(=O)c(/C=C3\SC(=S)N(CCc4ccccc4)C3=O)c(N3CCCC3)nc12,n,n
COc1ccc(N2CCN(C(=O)CCc3nnc4c5cc(-c6ccccc6)nn5ccn34)CC2)cc1,n,n
COc1ccc(S(=O)(=O)NCC(c2ccc3c(c2)OCO3)N2CCN(C)CC2)cc1 (stereo not given),n,n
CN(C)c1nc(N)nc(Cn2cnc3sc4c(c3c2=O)CCCC4)n1,n,n
CCCCC/C=C\C/C=C\C/C=C\C/C=C\CCCC(=O)O,x,n
C=CCN1C(=O)/C(=C\c2cccs2)SC1=S,x,n
C=CCN1C(=O)/C(=C/c2c(Sc3ccccc3)nc3ccccn3c2=O)SC1=S,-36.2,x
CC(C)N(C(=O)COc1c(CO)cc(Br)cc1CO)c1ccccc1,x,n
COC(=O)c1sc(NC(=O)CSc2nnc3cc(C)c4cccc(C)c4n23)c(C(=O)OC)c1C,n,n
O=C1NC(=Nc2ccc(F)cc2)S/C1=C/c1ccc(N2CCCC2)o1,x,n
O=C1NC(=Nc2ccc(F)cc2)S/C1=C/c1ccc(N2CCCCCC2)o1,-78.3,n
CC1=NN(c2ccccc2)C(=O)/C1=C\c1ccc(Oc2ccc([N+](=O)[O-])cc2[N+](=O)[O-])cc1,n,53.8
CN1C(=O)C(=Cc2ccc(Oc3ccc([N+](=O)[O-])cc3[N+](=O)[O-])cc2)C(=O)N(C)C1=O,n,n
CC1=NN(c2ccccc2)C(=O)/C1=C\c1ccc(N(C)C)cc1,n,n
COc1ccc(/C=C2\C(=O)N(c3ccccc3)N=C2C)cc1,n,43.3
COc1ccc(C(=O)Nc2ccc3nc(SCC(=O)N4CCCC4)sc3c2)cc1,n,n
CCCCN(CC)C(=O)c1sc2nc(C)nc(N3CCOCC3)c2c1C,n,n
SMILES,GIV-Gai inh,HCMV UL50-53 inh
Cc1nsc(NC(=O)C2COc3ccccc3O2)n1 (stereo not given),n,n
CCCCN(C)CCCNC(=O)CN1C(=O)CSc2ccc(S(=O)(=O)N3CCOCC3)cc21,n,x
CCn1c(O)c(/C=c2/c(C)c(C#N)c3nc4ccccc4n3c2=O)n(CC)c1=S,-48.2,x
CCc1c(C)c(C#N)c2nc3ccccc3n2c1NCCN(C)C,x,n
Cc1c(C#N)c2nc3ccccc3n2c(=O)/c1=C/NN1C(=O)CNC1=S,-30.7,n
CCc1c(C)c(C#N)c2nc3ccccc3n2c1Nc1ccncc1,n,x
CCCCCCCCCOc1ccc(-c2ncc(CCCCCC)cn2)cc1,n,x
O=C(O)CCN=C1CCCc2ccccc2N1,n,x
COc1cc(C(=O)Oc2ccc3c(=O)c(Oc4cccc(C)c4)coc3c2)cc(OC)c1OC,n,x
CC(C)CN(CCCNC(=O)c1cc(=O)[nH]c2ccc(S(=O)(=O)N3CCCC3)cc12)CC(C)C,n,x
C=CCN1C(=O)NC(=O)/C(=C/c2cccc(OCc3ccccc3Cl)c2)C1=O,n,72.9
CN1C(=O)/C(=C/c2cn(Cc3ccccc3)c3ccccc23)c2ccccc21,n,x
C=CCN1C(=O)NC(=O)/C(=C/c2ccc(OCc3ccccc3F)c(OCC)c2)C1=O,n,n
O=C(Cn1cc(/C=C2\C(=O)NC(=O)N(Cc3ccccc3)C2=O)c2ccccc21)NCc1ccco1,-34.6,n
C=CCN1C(=O)NC(=O)/C(=C/c2ccccc2OCc2ccc(Cl)cc2)C1=O,n,82.3
CN1C(=O)/C(=C/c2cn(CC(=O)NCc3ccco3)c3ccccc23)C(=O)NC1=S,n,n
C=CCN1C(=O)NC(=O)/C(=C/c2ccc(OCc3ccc(Cl)cc3)c(OC)c2)C1=O,n,n
C=CCN1C(=O)NC(=O)/C(=C\c2cn(Cc3ccccc3)c3ccccc23)C1=O,21.4,x
Cc1cc(C)c(N=C2c3ccccc3-c3ncccc32)c(C)c1,n,x
CC(C)CNc1ncnc2c1cnn2C,n,x
O=C(c1cccc(Cl)c1)c1nnc(-c2ccccc2)o1,x,n
Cc1nn(C2CCS(=O)(=O)C2)c2nc(C3CC3)cc(C(=O)NC3CCCCCC3)c12 (stereo not given),x,n
Fc1ccccc1-c1nnc2ccc(C(F)(F)F)cn12,x,56.9
O=C(O)c1ccccc1-c1nnc2c(Cl)cc(C(F)(F)F)cn12,n,n
CCOC(=O)c1cc(=O)c2cc(Cl)ccc2n1C,n,n
SMILES,GIV-Gai inh,HCMV UL50-53 inh
CCOC(=O)c1ccc(S(=O)(=O)N2CCN(CN3C(=O)CCC3=O)CC2)cc1,x,n
CCOC(=O)/C(C#N)=C\c1ccc(N2CCOCC2)cc1,-45.2,n
CCOC(=O)/C(C#N)=C/c1ccccc1,n,n
O=c1c(=Nc2ccccc2O)c(=O)c2ccccc12,x,n
O=C(Cn1c(CCCO)nc2ccccc21)NC1CC1,x,n
Cc1[nH]cnc1CN1CCc2c(c3ccccc3n2C)C1=O,x,89.5
Cc1[nH]cnc1CN1CCCCCCC1,n,n
Cc1ccc(Nc2c(-c3ccccc3O)nc3cc(C)ccn23)cc1,n,n
NC(=O)C[n+]1ccn2c(NC3CCCCC3)c(-c3ccccc3O)nc2c1,-74.8,x
CCOC(=O)N1CCN(C(=O)COc2ccccc2)CC1,x,n
O=C(O)C(Cc1ccc(O)cc1)N=Cc1cccc2ccccc12 (stereo not given),x,94.7
O=C(O)C(Cc1ccccc1)N=Cc1c(O)c2ccccc2oc1=O (stereo not given),n,n
Cn1c(=O)c(O)c2c3c(c(Br)ccc31)C(=O)c1ccccc1-2,-29.3,x
Cn1c(=O)cc2c3c(c(Br)ccc31)C(=O)c1ccccc1-2,n,x
Cc1c(NC(=S)NC(=O)c2ccccc2)c(=O)n(-c2ccccc2)n1C,n,n
CC1OCN(c2ccc(OC(F)(F)F)cc2)Cn2c1nc1ccc(Cl)cc12 (stereo not given),n,n
CC1=C(C(=O)OC(C)C)C2(O)C(=O)c3ccccc3C2(O)N1 (stereo not given),n,60.8
CCC(C)OC(=O)C1=C(C)NC2(O)c3ccccc3C(=O)C12O (stereo not given),n,x
CC(=O)Nc1cccc(NS(=O)(=O)c2ccc(C)cc2)c1,x,n
CCN1/C(=C\C=C2/C(=O)NC(=O)N(C)C2=O)Sc2ccccc21,-61.2,n
CCN1/C(=C\C=C2\C(=O)N(C)C(=S)N2C)Sc2ccccc21,n,x
COc1cc(C(=O)Nc2nnc(SCC(=O)Nc3ccc(F)cc3)s2)cc(OC)c1OC,n,x
O=C1Nc2ccccc2SC1Nc1ccc(-c2nnc3n2CCCCC3)cc1 (stereo not given),x,n
Cc1ccc(-n2[nH]c(=O)c(N=O)c2O)cc1C,85.1,x
CC(=O)Nc1ccc(N=Cc2c(C)[nH]n(-c3ccc(C)c(C)c3)c2=O)cc1,n,x
O=C1CCCC2=C1C(c1ccco1)c1c([nH]n(-c3ccccc3)c1=O)N2 (stereo not given),n,n
